Source: PubChem BioAssay AID686979 (National Center for Advancing Translational Sciences (NCATS), 2013)
This is a selection; strong and weak results do not stand in their true shares. Records with an inconclusive call do not appear. The source made the active and inactive calls. Calls come from the whole dose curve; as a rule, active = well fitted inhibition curve with a large enough effect; inconclusive = small, poorly fitted or top-dose-only effect; inactive = flat fitted curve, though single readings scatter.

Assay: qHTS for Inhibitors of human tyrosyl-DNA phosphodiesterase 1 (TDP1): qHTS in cells in presence of CPT; note: nearly all actives have a fitted effect of over 55% in size
Conditions: chicken DT40 Tdp1-/-;hTDP1 cells + 20 nM CPT, ATP luminescence, 48 h; series mostly up to 46.2 µM; activity change, negative = growth inhibition: at the top concentration
% is set by controls: 0 for no effect and ±100 for the full control effect; potency is the fitted concentration of half-maximal effect.

Structure (SMILES) | Potency | activity change, negative = growth inhibition
Clc1ccc(Cl)c(NC2=NCC(CBr)S2)c1 (stereo not given) | active: 18.4 µM | 
CCNC(C)Cc1ccc2c(c1)OCO2 (stereo not given) |  | inactive: -29.1% [at 92.5 µM]
NC(=O)c1cc([N+](=O)[O-])cc([N+](=O)[O-])c1N |  | inactive: -0.749%
Cc1ccc(N/C(=N/P(=O)(N2CCOCC2)N2CCOCC2)N2CCOCC2)cc1 |  | inactive: 1.55%
CCN(N=Nc1nonc1N)c1nonc1N |  | inactive: 2.01%
Nc1cccc2ccc([As](=O)(O)O)cc12 |  | inactive: -0.108%
CCOP(=O)(Nc1ccccc1)OCC |  | inactive: -7.9%
Cc1ccc(NP(=O)(Oc2ccccc2F)Oc2ccccc2F)nc1 |  | inactive: 9.03%
CC(=O)Nc1ccc([As](=O)(O)O)cc1 |  | inactive: 6.12%
O=C(O)c1ccccc1[As](=O)(O)O |  | inactive: 0.964%
CCCC1OP(N)(=O)OCC1CC (stereo not given) |  | inactive: -6.29%
O=P(Nc1nc2ccc(Cl)cc2s1)(c1ccccc1)c1ccccc1 |  | inactive: -8.98%
COC(=O)C1(C)COP(=O)(Nc2ccccc2)OC1 (stereo not given) |  | inactive: 12.2%
O=[N+]([O-])c1cccc(NC2=NCC(CBr)S2)c1 (stereo not given) | active: 14.6 µM | 
O=C(O)CNc1ccc([As](=O)(O)O)cc1 |  | inactive: 0.243%
CC(C)(C)C(=O)NC(Sc1ccncn1)C(Cl)(Cl)Cl (stereo not given) |  | inactive: -6.77%
O=[N+]([O-])c1ncn(CCn2ncnc2[N+](=O)[O-])n1 |  | inactive: -5.97%
O=P(/N=c1/nc(-c2ccccc2)n(-c2ccccc2)s1)(Nc1ccccc1)Nc1ccccc1 | active: 7.08 µM | 
O=C(Nc1cc([As](=O)(O)O)ccc1O)c1ccccc1 |  | inactive: 9.56%
O=P1(N(CCCl)CCCl)OCCCS1 (stereo not given) |  | inactive: 4.95%
COc1cc([N+](=O)[O-])c([N+](=O)[O-])cc1OC | active: 10 µM | 
CC(C)=N/N=C(\N)N[N+](=O)[O-] |  | inactive: 2.95%
CC(=O)C1=CCCC2CCC1N2 (stereo not given) |  | inactive: 1.79%
CC1CCN(C(=O)Oc2c(Cl)cc(Cl)c3cccnc23)CC1 |  | inactive: -27.9%
c1cc(-c2nn[nH]n2)ccc1-c1nn[nH]n1 |  | inactive: -16.9%
Nc1ccc([As](=O)(O)c2ccc(N)cc2)cc1 |  | inactive: 2.15%
CCN(/C(=N/P(=O)(N1CCOCC1)N1CCOCC1)N1CCOCC1)c1ccc(OC)cc1 |  | inactive: 3.91%
O=[N+]([O-])c1cccc2n[nH]nc12 |  | inactive: -29.4%
CC(=O)N1C2C3N(C(C)=O)C1C1N(C(C)=O)C(C(N1C(C)=O)N3C(C)=O)N2C(C)=O |  | inactive: -1.36%
Cc1ccc(NP(=O)(Oc2ccccc2)Oc2ccccc2)nc1 |  | inactive: -17.8%
